Laboratory results from ChEMBL document CHEMBL4011629, “New Disubstituted Quindoline Derivatives Inhibiting Burkitt's Lymphoma Cell Proliferation by Impeding c-MYC Transcription” (J Med Chem, 2017).

Test system: Raji
Assay: Antitumor activity against human Raji cells xenografted in NOD/SCID nude mouse assessed as reduction in tumor volume at 1 mg/kg, ip administered once in 2 days for 2 weeks relative to control
Format: functional

COc1cccc2c1C(=O)c1c(O)c3c(c(O)c1C2=O)C[C@@](O)(C(=O)CO)C[C@@H]3O[C@H]1C[C@H](N)[C@H](O)[C@H](C)O1 [DOXORUBICIN]
T/C: 31.9%
